{"source": "patent US20240166643A1", "about": "“IMIDAZO[1,2-A]PYRIDINE COMPOUNDS AND THEIR USE IN THERAPY” (Imperial College Innovations Limited, priority 2020, published 2024)", "system": "SU-DHL-10 cells", "assay": "Cell cytotoxicity in SU-DHL-10 cell line (CellTiter-Glo)", "type": "cell-based, human", "settings": "read-out: SU-DHL-10 EC50, 48 h"}
{"smiles": "C[C@@H]1CN(c2ncc(F)c(N3CC(C(=O)NC(C)(C)c4cnc5ccccn45)C3)n2)CCN1", "values": [{"measurement": "EC50", "result": 676, "unit": "nM"}]}
